Target: AChE (Electrophorus electricus, UniProt O42275)
Format: biochemical
Conditions: for IC50: read-out: IC50 AChE; for Ki: read-out: Ki AChE

The chains behind the UniProt entries cited, without tags or fusion partners. Residues count along the entry.
UniProt O42275, 24-633: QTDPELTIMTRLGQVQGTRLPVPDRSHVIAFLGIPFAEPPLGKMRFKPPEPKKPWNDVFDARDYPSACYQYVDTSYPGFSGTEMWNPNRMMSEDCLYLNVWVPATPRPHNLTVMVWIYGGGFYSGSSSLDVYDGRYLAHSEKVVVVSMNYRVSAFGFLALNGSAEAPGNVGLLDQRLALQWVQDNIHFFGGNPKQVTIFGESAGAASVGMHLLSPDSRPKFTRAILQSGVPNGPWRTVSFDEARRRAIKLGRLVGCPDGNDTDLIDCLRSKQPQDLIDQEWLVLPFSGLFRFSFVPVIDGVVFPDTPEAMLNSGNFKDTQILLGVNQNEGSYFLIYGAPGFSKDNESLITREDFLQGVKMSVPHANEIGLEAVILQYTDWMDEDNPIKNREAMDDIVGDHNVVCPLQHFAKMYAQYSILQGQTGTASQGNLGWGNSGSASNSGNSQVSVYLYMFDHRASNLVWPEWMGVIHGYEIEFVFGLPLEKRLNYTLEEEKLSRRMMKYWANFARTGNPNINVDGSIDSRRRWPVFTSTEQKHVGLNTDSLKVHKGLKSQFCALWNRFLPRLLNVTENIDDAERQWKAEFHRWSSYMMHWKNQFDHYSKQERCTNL

Substance | IC50 [nM] | Ki [nM]
dibromo[1,3-dibenzylbenzimidazol-2-ylidene]-2-aminopyridinepalladium(II) [Complex 4] | 43.3 | 38.6 ± 5
dibromo[1,3-dibenzylbenzimidazol-2-ylidene]-3-chloropyridinepalladium(II) [Complex 3] | 21.6 | 24.5 ± 2.9
dibromo[1,3-dibenzylbenzimidazol-2-ylidene]morpholinepalladium(II) [Complex 6] | 25.6 | 32.1 ± 3.2
dibromo[1,3-dibenzylbenzimidazol-2-ylidene]pyridinepalladium(II) [Complex 2] | 26.6 | 22.8 ± 3.2
